Experimental data taken from PubChem BioAssay (NCI).
“And” between values parts separate entries of the source, which are not always exact repeats. Equal values may be shown once.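 Step 1: Grow cells in 96-well plates. Step 2: Expose to compound for 48 hours at 5 concentrations. Step 3: Interpolate endpoints linearly; if unreached, use highest concentration. GI50 is the concentration that inhibits growth by half. TGI denotes the concentration required for complete inhibition of growth.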

How the values were obtained:
Experiment in all cases: NCI anticancer screen, dose series, 48 h; in the data active means GI50 below about 0.43 µM; inactive means the rest
[1] = system: OVCAR-4 ovarian
[2] = system: U251 CNS
[3] = system: EKVX NSCLC
[4] = system: SNB-75 CNS
[5] = system: 786-0 renal
[6] = system: UACC-62 melanoma
[7] = system: IGROV1 ovarian
[8] = system: LOX IMVI melanoma
[9] = system: MALME-3M melanoma
[10] = system: SF-539 CNS
[11] = system: NCI-H460 lung
[12] = system: M14 melanoma
[13] = system: SK-MEL-5 melanoma
[14] = system: T-47D breast
[15] = system: SW-620 colon
[16] = system: HCC-2998 colon
[17] = system: SF-295 CNS
[18] = system: SNB-19 CNS
[19] = system: RXF 393 renal
[20] = system: NCI-H23 lung
[21] = system: DU-145 prostate
[22] = system: HOP-62 NSCLC
[23] = system: BT-549 breast
[24] = system: COLO 205 colon
[25] = system: SF-268 CNS
[26] = system: SK-OV-3 ovarian
[27] = system: HS 578T breast
[28] = system: ACHN renal
[29] = system: SK-MEL-28 melanoma
[30] = system: HCT-15 colon
[31] = system: CAKI-1 renal
[32] = system: HT29 colon
[33] = system: OVCAR-5 ovarian
[34] = system: TK-10 renal
[35] = system: KM12 colon

O=C1c2c(O)ccc(O)c2C(=O)c2c(NCCNCCO)ccc(NCCNCCO)c21
active: GI50 [1] 136 nM | GI50 [2] 15.3 nM | GI50 [4] 42.6 nM | GI50 [5] < 10 nM and 21.4 nM and 21.5 nM | GI50 [6] 17.2 nM and 33.4 nM and 38.6 nM | GI50 [7] 91.5 nM and 82.1 nM and 185 nM | GI50 [8] 18.2 nM | GI50 [9] 94.3 nM | GI50 [10] 21.4 nM and 21.7 nM | GI50 [11] < 5 nM | GI50 [12] 56.9 nM | GI50 [13] 33.6 nM | GI50 [14] 26.8 nM | GI50 [15] 64 nM | GI50 [16] 87.8 nM and 153 nM and 238 nM | GI50 [17] < 10 nM and 15.3 nM and 21.1 nM | GI50 [18] 18.9 nM | GI50 [19] 54.8 nM | GI50 [20] 17.2 nM and 39.5 nM and 66.4 nM | GI50 [21] 18.3 nM | GI50 [22] 9.3 nM | GI50 [23] 247 nM | GI50 [24] 89.7 nM and 164 nM | GI50 [25] 13.6 nM and 25.5 nM and 28.7 nM | GI50 [26] 27.3 nM | GI50 [27] 28.4 nM and 166 nM and 92.8 nM | GI50 [28] 19.5 nM | GI50 [29] 252 nM | GI50 [30] 133 nM and 253 nM and 283 nM | GI50 [31] 17.8 nM and 78 nM | GI50 [32] 83.4 nM | GI50 [33] 83.5 nM and 206 nM and 308 nM | GI50 [34] 79.2 nM | GI50 [35] 220 nM and 330 nM
488 nM and 911 nM and 1110 nM: TGI [20]
1280 nM and 289 nM: GI50 [3]
9940 nM: TGI [31]
